Chains of the proteins cited; added tags and fusions are not shown. Residues count along the entry.
UniProt Q07954, 20-4544: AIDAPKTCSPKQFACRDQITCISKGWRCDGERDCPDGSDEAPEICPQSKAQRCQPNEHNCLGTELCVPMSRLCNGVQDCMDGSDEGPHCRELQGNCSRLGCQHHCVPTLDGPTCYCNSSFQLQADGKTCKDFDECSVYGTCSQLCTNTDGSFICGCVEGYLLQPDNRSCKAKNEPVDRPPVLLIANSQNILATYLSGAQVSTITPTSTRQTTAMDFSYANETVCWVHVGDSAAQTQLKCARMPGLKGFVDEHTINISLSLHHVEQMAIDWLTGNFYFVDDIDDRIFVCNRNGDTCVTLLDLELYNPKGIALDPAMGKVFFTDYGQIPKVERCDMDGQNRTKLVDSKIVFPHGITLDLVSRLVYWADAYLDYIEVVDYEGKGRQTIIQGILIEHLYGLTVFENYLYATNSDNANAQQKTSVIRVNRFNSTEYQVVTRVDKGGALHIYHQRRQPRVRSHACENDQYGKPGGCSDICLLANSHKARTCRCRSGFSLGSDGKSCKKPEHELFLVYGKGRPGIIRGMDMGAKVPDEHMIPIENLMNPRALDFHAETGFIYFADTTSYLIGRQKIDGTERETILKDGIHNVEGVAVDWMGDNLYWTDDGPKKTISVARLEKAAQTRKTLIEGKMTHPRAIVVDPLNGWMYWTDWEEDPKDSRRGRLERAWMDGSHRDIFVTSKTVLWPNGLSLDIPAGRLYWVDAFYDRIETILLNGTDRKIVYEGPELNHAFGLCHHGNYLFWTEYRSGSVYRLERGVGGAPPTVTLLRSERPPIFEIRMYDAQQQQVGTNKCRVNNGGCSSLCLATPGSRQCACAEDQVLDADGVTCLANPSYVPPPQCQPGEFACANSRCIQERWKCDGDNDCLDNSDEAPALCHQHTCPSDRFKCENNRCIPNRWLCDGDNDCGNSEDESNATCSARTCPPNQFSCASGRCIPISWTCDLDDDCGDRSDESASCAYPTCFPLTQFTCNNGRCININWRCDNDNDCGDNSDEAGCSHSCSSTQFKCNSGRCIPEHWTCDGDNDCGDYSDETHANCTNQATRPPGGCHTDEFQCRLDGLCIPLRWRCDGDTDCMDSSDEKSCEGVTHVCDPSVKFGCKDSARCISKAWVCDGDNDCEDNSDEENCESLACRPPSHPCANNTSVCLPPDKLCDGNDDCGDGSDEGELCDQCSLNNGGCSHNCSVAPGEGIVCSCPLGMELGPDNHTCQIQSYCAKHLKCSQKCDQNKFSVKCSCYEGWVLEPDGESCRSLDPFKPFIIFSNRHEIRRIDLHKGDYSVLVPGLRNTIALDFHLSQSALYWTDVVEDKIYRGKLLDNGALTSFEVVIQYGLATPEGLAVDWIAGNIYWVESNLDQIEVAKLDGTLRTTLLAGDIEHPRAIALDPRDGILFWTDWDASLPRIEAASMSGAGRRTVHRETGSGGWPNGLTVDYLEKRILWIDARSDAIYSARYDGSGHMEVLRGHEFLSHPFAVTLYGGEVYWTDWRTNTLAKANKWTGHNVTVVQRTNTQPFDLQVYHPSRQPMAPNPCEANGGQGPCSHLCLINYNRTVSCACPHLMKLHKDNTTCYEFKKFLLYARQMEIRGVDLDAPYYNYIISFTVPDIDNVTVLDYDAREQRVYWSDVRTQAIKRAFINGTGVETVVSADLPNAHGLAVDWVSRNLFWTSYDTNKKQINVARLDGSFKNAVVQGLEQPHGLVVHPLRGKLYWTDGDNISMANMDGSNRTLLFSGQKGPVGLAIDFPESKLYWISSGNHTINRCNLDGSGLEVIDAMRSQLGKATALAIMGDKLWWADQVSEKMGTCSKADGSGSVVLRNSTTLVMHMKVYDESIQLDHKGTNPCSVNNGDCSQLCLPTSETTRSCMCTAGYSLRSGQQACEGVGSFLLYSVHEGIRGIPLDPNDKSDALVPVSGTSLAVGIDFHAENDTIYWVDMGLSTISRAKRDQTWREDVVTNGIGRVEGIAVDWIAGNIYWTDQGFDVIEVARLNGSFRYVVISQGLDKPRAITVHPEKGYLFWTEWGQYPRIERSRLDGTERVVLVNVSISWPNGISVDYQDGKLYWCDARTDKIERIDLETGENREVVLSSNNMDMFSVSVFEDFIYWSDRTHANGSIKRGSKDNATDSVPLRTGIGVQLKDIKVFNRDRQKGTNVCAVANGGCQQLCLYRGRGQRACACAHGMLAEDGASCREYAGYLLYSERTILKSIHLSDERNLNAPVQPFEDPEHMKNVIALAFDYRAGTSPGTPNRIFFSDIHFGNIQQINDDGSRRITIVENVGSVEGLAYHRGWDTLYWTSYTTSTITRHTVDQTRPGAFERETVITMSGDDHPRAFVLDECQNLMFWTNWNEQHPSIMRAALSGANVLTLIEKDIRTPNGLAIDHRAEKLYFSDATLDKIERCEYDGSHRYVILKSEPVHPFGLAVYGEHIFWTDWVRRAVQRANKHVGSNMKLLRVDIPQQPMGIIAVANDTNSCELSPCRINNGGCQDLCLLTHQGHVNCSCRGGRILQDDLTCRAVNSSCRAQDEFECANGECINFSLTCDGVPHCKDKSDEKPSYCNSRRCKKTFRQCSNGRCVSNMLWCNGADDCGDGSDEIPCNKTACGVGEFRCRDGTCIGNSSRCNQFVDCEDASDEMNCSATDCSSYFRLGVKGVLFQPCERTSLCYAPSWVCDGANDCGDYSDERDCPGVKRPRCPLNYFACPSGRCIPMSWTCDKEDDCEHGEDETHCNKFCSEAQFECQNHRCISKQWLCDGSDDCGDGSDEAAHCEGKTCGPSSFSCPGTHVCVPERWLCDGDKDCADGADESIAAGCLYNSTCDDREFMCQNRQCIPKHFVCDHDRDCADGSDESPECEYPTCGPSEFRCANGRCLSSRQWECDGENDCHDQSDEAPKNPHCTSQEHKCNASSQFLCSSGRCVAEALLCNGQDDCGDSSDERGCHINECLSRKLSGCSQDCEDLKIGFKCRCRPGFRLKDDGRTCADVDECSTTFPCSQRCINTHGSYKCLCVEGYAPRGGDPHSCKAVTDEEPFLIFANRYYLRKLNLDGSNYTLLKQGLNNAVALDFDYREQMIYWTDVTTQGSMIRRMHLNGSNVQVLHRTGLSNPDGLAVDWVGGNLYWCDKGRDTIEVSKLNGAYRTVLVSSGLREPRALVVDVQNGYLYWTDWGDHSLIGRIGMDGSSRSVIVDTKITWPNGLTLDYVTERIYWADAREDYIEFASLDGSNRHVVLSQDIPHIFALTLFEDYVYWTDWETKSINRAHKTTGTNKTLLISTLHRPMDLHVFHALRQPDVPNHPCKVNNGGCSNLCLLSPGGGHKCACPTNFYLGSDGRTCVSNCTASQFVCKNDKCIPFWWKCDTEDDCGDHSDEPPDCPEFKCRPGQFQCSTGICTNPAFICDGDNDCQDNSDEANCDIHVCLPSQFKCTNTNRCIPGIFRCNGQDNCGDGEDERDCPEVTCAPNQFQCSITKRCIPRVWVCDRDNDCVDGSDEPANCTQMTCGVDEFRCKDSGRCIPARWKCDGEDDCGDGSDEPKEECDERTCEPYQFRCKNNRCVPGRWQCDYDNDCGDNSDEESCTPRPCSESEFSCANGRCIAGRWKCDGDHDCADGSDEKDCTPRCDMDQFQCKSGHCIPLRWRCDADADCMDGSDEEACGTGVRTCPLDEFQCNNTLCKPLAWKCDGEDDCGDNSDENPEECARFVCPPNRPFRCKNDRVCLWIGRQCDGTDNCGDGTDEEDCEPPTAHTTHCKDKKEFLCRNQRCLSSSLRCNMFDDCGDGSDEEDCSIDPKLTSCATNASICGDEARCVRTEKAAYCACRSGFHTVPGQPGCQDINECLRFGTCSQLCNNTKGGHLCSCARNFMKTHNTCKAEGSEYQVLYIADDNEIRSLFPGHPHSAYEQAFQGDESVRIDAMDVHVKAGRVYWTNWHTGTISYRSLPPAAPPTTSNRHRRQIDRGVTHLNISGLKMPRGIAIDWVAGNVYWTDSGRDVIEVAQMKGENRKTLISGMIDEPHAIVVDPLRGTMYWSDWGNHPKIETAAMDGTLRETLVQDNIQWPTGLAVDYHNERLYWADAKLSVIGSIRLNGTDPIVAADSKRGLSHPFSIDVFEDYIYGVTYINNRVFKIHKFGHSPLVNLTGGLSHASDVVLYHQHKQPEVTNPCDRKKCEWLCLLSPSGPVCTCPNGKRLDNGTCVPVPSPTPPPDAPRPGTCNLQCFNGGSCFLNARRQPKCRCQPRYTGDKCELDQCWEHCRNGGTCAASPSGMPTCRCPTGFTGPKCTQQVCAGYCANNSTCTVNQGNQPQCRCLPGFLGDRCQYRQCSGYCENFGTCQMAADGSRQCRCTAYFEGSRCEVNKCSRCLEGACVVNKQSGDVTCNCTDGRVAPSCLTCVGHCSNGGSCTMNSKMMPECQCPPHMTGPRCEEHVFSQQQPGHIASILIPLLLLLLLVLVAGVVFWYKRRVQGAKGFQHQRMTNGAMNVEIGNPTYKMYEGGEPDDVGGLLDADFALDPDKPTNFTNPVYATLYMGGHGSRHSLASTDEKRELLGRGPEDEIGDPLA

According to publication PMC12096005:

Molecular target: low density lipoprotein receptor-related protein 1 (LRP1), full-length, purified from human placenta (human) (UniProt Q07954)
Experiment: SPR; Biacore 8K; full-length LRP1 immobilised via amine coupling on a CM5 sensorchip; tau proteins (3.7, 11.1, 33.3 nM) flowed over in a single cycle kinetic titration at pH 7.4; apparent KD from nonlinear regression of Rmax vs concentration

## full-length 2N4R tau, wildtype sequence (recombinant, without HiBiT-tag) (from UniProt P10636-8 1-441) (natural protein)
  Kd: 6 nM
